Data from BindingDB's records for doi:10.1016/S0960-894X(02)01050-8 (The University of Texas At Houston, 2003).

Chains of the proteins cited; added tags and fusions are not shown.
UniProt P42227, whole entry: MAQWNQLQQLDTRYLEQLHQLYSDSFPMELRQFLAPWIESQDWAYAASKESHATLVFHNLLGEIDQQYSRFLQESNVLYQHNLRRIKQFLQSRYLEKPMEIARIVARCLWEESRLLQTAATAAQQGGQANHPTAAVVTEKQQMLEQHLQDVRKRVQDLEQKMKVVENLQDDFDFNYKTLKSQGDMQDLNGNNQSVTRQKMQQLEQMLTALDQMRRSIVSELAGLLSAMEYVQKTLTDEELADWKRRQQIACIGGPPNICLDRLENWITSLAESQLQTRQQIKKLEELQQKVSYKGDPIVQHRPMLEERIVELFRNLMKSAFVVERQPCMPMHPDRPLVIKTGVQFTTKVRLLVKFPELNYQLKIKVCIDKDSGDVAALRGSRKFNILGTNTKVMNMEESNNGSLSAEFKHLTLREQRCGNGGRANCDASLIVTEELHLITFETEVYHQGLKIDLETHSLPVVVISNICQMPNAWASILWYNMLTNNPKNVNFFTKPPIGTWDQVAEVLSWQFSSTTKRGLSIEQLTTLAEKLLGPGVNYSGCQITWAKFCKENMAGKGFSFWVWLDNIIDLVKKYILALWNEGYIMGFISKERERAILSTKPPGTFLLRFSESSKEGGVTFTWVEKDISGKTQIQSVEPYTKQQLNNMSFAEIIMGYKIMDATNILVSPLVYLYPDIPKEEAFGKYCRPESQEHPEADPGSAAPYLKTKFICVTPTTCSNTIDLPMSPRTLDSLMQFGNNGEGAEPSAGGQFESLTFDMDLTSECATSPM

Target: Signal transducer and activator of transcription 3 (Mus musculus, UniProt P42227)
Experiment: Electrophoretic Mobility Shift Assay (EMSA)
Details: pH 7.8; 22 °C
Experimental: His10-Stat3 was expressed in Sf9 cells from a baculovirus encoding the recombinant protein. A nuclear extract of the Sf9 cells was incubated with 32P-labeled high affinity c-fos sis inducible element (hSIE) either alone or in the presence of inhibitor. After 20 min of incubation, samples were electrophoresed on polyacrylamide gels. The gels were dried, exposed to a phosphorimager screen and scanned. IC50 values were derived from plots of spot intensity versus phosphopeptide concentration. The affinity of peptides to the SH2 domain is measured by the intensity of the radioactivity of the Stat3-DNA complex band in the electrophoresis gel.

Work on `CC(=O)N[C@@H](Cc1ccc(OP(=O)(O)O)cc1)C(=O)N[C@@H](Cc1cnc[nH]1)C(=O)N[C@@H](CC(N)=O)C(=O)N[C@@H](CCC(N)=O)C(=O)N1CCC[C@H]1C(=O)N[C@@H](CC(C)C)C(N)=O` [4-[(2S)-2-{[(1S)-1-{[(1S)-2-carbamoyl-1-{[(2S)-4-carbamoyl-1-[(2S)-2-{[(1S)-1-carbamoyl-3-methylbutyl]carbamoyl}pyrrolidin-1-yl]-1-oxobutan-2-yl]carbamoyl}ethyl]carbamoyl}-2-(1H-imidazol-4-yl)ethyl]carbamoyl}-2-acetamidoethyl]phenoxyphosphonic acid] yielded an IC50 of 150 µM.
